Target: Cholecystokinin receptor type A (Rattus norvegicus, UniProt P30551)
Assay: Binding activity against Cholecystokinin type A receptor from rat pancreas using [125]BH CCK-8s as radioligand.

Sequences of proteins named here, by UniProt entry; tags and fusion partners are left off.
UniProt P30551, whole entry: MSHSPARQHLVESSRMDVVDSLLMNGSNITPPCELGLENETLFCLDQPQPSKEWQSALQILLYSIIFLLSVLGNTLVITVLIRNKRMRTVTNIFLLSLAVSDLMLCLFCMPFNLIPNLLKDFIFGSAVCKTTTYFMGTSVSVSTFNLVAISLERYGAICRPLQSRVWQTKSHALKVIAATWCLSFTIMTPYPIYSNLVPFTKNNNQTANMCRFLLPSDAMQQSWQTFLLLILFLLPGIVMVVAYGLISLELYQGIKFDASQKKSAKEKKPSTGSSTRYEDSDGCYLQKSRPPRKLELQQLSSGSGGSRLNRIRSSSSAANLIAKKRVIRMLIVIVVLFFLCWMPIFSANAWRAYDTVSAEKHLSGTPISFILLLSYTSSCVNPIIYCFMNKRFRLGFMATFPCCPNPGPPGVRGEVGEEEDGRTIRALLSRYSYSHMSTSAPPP

In the case of Cc1cccc(NC(=O)N[C@@H]2N=C(N3CC4CCC(CC4)C3)c3ccccc3N(C)C2=O)c1, the IC50 is reported as 1600 nM.

— ChEMBL document CHEMBL1127663, “High-affinity and potent, water-soluble 5-amino-1,4-benzodiazepine CCKB/gastrin receptor antagonists containing a cationic solubilizing group” (J Med Chem, 1994)
